The text below walks through data of patent publication EP3293246A1, “LUBRICANT COMPOSITIONS CONTAINING DIUREA COMPOUNDS” (BASF SE, priority 2016, dated 2018).

A short description of data set [1]: Relative viscosity of 0.5% solutions in Yubase 4, Stabinger viscometer. The format is physicochemical. Particulars: 0.5% in Yubase 4, 25°C; ratio of viscosity of solution to viscosity of solvent. The protocol:
Viscosities of different compounds (each 0.5% in Yubase 4 obtained from the solubility determinations. The relative viscosities (ratio of the viscosity of the solution to the viscosity of the solvent) of the solutions at 25°C were determined using a Stabinger viscometer (equivalent to ASTM D445).

The nature of data set [2]: Solubility 0.5% in base oil Yubase 4, visual inspection of appearance. Particulars: 0.5 g compound stirred with 99.5 g Yubase 4 at 100°C for 4 hours, cooled to room temperature. It is filed as physicochemical. On the procedure:
For the determination of the solubilities, 0.5 g of the compound under test was stirred with 99.5 g of Yubase 4 at 100°C for 4 hours and subsequently cooled to room temperature. The appearance of the solution was assessed by visual inspection.

“2,4-bis-(polyisobuteneureido)-toluene [Example 9]”: the Relative viscosity in data set [1] stood at 1.0. For the same substance, the “Solubility 0.5% in Yubase 4; visible appearance” value in data set [2] was “clear solution, not visibly more viscous than Yubase 4”.
